Reported melting point values for industrial, environmental and drug-like chemicals

Values as listed in the OPERA 2.9 repository of K. Mansouri.

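OPERA's authors assembled the values from existing databases and did not measure them anew. The files give a single number for a compound and property, which may rest on several reports. Conditions of the individual experiments are not part of the data. Where a salt, mixture or single isomer is drawn, the source does not say that exactly this form was tested. Some entries may be limits or estimates that an upstream database listed as plain numbers.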

Melting points are in °C.
The databases behind each value are named after "via".

| SMILES | melting point (°C) | via |
|---|---|---|
| C[C@]12C=CC[C@@]1(C)[C@]1(C)C=C[C@@]2(C)C1 | 32 | OCHEM |
| CSc1nn2ccccc2c1[N+](=O)[O-] | 224 | eChemPortal |
| O=C(O)c1ccccc1SC(F)F | 115 | OCHEM |
| CCCCCCCC(=O)CC(=O)c1ccccc1 | 17.06 | eChemPortal |
| C=C(C)C(=O)OCC(CCC)CCCCC (stereo not drawn) | -117.5 | eChemPortal |
| C=C(C)C(=O)OCCOc1ccc(C(=O)c2ccccc2)c(O)c1 | 89 | eChemPortal |
| CC(=O)Oc1ccc(-c2ccc(C(=O)O)cc2)cc1 | 276 | OCHEM |
| CCC[C@H]1CC[C@H]([C@H]2CC[C@H](C=O)CC2)CC1 | 71 | eChemPortal |
| CC1(C)C2C(=O)N(Cc3ccccc3)C(=O)C21 (stereo not drawn) | 85 | eChemPortal |
| Cc1cn2c(CC(=O)O)csc2n1 | 212 | OCHEM |
| COc1cc(C=O)ccc1OCc1ccc(Br)cc1 | 75 | OCHEM |
| Nc1cnc(-c2ccccc2)nc1 | 82 | OCHEM |
| O=c1[nH]c(CCl)nc2scc(-c3ccccc3)c12 | 228 | OCHEM |
| O=C1C=CC(=NC2=NNNS2)C=C1 | 160 | OCHEM |
| CCCCn1nc(C(=O)O)ccc1=O | 120 | OCHEM |
| CN(C)C(=O)c1cc2cnc(Nc3ccc(N4CCN(C(=O)OC(C)(C)C)CC4)cn3)nc2n1C1CCCC1 | 220 | eChemPortal |
| O=C(O)c1ccc(-n2cnnn2)cc1 | 225 | OCHEM |
| CCN(CC)CCS(=O)(=O)[C@@H]1CCN2C(=O)c3coc(n3)CC(=O)C[C@H](O)C=C(C)C=CCNC(=O)C=C[C@@H](C)[C@@H](C(C)C)OC(=O)[C@@H]12 | 150 | PubChem |
| O=C(O)CCNC(=O)Nc1ccccc1 | 174 | OCHEM |
| CC(=O)Oc1cccc(OC(C)=O)c1 | -33.5 | eChemPortal |
| O=C(CC(=O)Nc1ccc(F)cc1)Nc1ccc(F)cc1 | 218 | OCHEM |
| Cc1n[nH]c(NN)nc1=O | 238 | OCHEM |
| CC(C)(COC(=O)c1ccccc1)COC(=O)c1ccccc1 | 46.5 | eChemPortal |
| CC(=O)NC12CC3CC(C1)CC(C(=O)O)(C3)C2 | 259 | OCHEM |
| Nc1ccc(-c2nc3ccccc3s2)cc1 | 150 | OCHEM |
| NC(=O)c1c(N)sc2c1CCC2 | 159 | OCHEM |
| COc1ccccc1OCCC(=O)O | 134 | OCHEM |
| CCO[Si](OCC)(OCC)c1ccccc1 | -100.1 | eChemPortal |
| Cc1sc(N)c(C#N)c1C | 135 | OCHEM |
| CC(=O)O[C@H]1CC[C@@]2(C)[C@H](CC[C@@H]3[C@@H]2C[C@@]2(O)[C@@H]4CN5C[C@@H](C)CC[C@H]5[C@@](C)(O)[C@@]4(O)[C@@H](O)C[C@@]32O)[C@@H]1O | 258 | OCHEM |
| CCCCCCCCON1C(C)(C)CCC(OC(=O)CCCCCCCCC(=O)OC2CCC(C)(C)N(OCCCCCCCC)C2(C)C)C1(C)C (stereo not drawn) | -50.5 | eChemPortal |
| CCCCCCCCCCCCCCCCCCO[Si](C)(C)OCCCCCCCCCCCCCCCCCC | 32 | eChemPortal |
| O=[N+]([O-])c1ccc(Cl)c2cccnc12 | 134 | OCHEM |
| O=C(O)c1cc(F)c(F)c(Br)c1F | 122.5 | OCHEM |
| COc1ccc([N+](=O)[O-])cc1OCCCCl | 92.65 | eChemPortal |
| Cc1c(Cl)cccc1N1C(=O)C=CC1=O | 69 | OCHEM |
| CS(=O)(=O)OC[C@H](O)[C@@H](O)COS(C)(=O)=O | 102.2 | PubChem |
| O=C(O)c1csc(Br)c1 | 138 | OCHEM |
| CC(=O)CC(O)=Nc1ccccc1C(F)(F)F | 61 | OCHEM |
| Nc1oc2ccccc2c(=O)c1C=O | 250 | OCHEM |
| CCCCCCC(=O)OCCOCCOCCOC(=O)CCCCCC | -24 | OFMPub |

4 of these entries, quoted again:

{"smiles": "O=C(O)c1ccccc1SC(F)F", "melting point (°C)": "115", "via": "OCHEM"}
{"smiles": "CC(=O)CC(O)=Nc1ccccc1C(F)(F)F", "melting point (°C)": "61", "via": "OCHEM"}
{"smiles": "O=C(O)c1ccc(-n2cnnn2)cc1", "melting point (°C)": "225", "via": "OCHEM"}
{"smiles": "Nc1ccc(-c2nc3ccccc3s2)cc1", "melting point (°C)": "150", "via": "OCHEM"}